Measurements published in BindingDB's records for doi:10.1016/j.bmcl.2015.03.051 (Mayo Clinic, 2015).

By UniProt entry, the sequences of proteins in these tests, tags left out.
UniProt P32238, whole entry L356H: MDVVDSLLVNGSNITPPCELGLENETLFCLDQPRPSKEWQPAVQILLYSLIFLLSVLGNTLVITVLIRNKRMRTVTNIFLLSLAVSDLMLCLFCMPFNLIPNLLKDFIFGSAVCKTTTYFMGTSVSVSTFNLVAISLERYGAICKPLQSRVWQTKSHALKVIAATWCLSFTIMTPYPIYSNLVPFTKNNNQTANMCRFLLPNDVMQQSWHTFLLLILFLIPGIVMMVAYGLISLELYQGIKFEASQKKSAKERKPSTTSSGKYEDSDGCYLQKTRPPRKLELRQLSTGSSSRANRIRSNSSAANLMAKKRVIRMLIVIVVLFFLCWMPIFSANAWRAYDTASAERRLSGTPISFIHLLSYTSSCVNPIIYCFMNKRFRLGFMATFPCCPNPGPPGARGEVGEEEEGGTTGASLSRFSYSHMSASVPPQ

Assays:
[1] = biological target: T1, Cholecystokinin receptor type A (Homo sapiens, UniProt P32238)
[2] = biological target: T1, Cholecystokinin receptor type A; remark: listed apart in the source

O=C(CN1C(=O)C(NC(=O)Nc2ccccc2)C(=O)N(c2ccccc2)c2ccccc21)Nc1ccccc1 (configuration not stated)
IC50 [1]: 12 nM | IC50 [2]: 6.3 nM
